# From patent publication US20250313563A1, “GLYCOGEN SYNTHASE KINASE 3 INHIBITORS AND USES THEREOF” (The Broad Institute, Inc., priority 2022, published 2025)
# The chains behind the UniProt entries cited, without tags or fusion partners.
# UniProt P49840, whole entry: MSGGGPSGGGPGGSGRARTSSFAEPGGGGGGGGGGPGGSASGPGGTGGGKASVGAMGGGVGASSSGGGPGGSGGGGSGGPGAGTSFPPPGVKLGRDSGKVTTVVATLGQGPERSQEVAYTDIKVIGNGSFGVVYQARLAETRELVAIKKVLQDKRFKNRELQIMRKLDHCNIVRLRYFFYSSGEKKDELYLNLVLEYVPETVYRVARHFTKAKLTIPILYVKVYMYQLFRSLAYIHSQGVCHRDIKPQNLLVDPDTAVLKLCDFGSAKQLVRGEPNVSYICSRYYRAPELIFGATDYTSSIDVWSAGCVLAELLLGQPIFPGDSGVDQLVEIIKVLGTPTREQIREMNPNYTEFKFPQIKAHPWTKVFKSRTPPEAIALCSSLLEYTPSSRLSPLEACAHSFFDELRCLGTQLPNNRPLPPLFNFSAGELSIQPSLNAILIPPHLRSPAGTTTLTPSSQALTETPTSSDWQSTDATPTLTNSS
# UniProt P49841, whole entry: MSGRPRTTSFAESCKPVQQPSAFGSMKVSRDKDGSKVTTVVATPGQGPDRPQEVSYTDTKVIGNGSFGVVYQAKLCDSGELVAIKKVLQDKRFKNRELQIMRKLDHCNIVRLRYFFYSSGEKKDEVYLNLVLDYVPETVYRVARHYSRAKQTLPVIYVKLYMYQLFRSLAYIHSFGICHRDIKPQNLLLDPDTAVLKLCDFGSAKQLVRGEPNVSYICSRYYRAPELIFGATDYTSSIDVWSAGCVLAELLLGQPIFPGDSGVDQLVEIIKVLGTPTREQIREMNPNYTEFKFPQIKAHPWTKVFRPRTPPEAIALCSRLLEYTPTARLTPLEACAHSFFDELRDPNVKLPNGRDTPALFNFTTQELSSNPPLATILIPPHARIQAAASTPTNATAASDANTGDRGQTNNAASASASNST
# Legend:
# [1] = target: GSK3α (GST-full length GSK3α) (Homo sapiens (Human), UniProt P49840); assay: GSK3α TR-FRET kinase assay; assay type: biochemical
# [2] = target: GSK3b (GST-full length GSK3b) (Homo sapiens (Human), UniProt P49841); assay: GSK3b TR-FRET kinase assay; assay type: biochemical
# [3] = test system: MDR1-MDCK cell monolayers; assay: MDR1/MDCK assay (blood-brain barrier penetration potential); conditions: 5 μM, pH 7.4, 120 minutes
# [4] = read-out: GSK3-A (TR-FRET 1 mM ATP), GMean, IC50, 1 mM ATP, geometric mean
# [5] = read-out: GSK3-B (TR-FRET 1 mM ATP), GMean, IC50, 1 mM ATP, geometric mean
# [6] = read-out: GSK3-A TR-FRET BIOCHEMICAL (TR-FRET), GMean, IC50, 1 nM GSK3α, 4 μM ATP, 30 minute preincubation, geometric mean
# [7] = read-out: GSK3-B TR-FRET BIOCHEMICAL (TR-FRET), GMean, IC50, 1 nM GSK3b, 2 μM ATP, 30 minute preincubation, geometric mean
# [8] = read-out: GSK3-A TR-FRET BIOCHEMICAL (TR-FRET), IC50, 1 nM GSK3α, 4 μM ATP, 30 minute preincubation (Table 16)
# [9] = read-out: GSK3-B TR-FRET BIOCHEMICAL (TR-FRET), IC50, 1 nM GSK3b, 2 μM ATP, 30 minute preincubation (Table 16)
# [10] = read-out: GSK3-A TR-FRET BIOCHEMICAL (TR-FRET);, 1 nM GSK3α, 4 μM ATP, 30 minute preincubation, Table 16
# [11] = read-out: GSK3-B TR-FRET BIOCHEMICAL (TR-FRET);, 1 nM GSK3b, 2 μM ATP, 30 minute preincubation, Table 16
SMILES,"pIC50 [1, 6]","pIC50 [2, 7]","pIC50 [1, 8]","pIC50 [2, 9]",also measured
Cn1ccc(-c2cccc([C@]3(C)C4=C(CC(C)(C)CC4=O)Nc4n[nH]c(CC(C)(C)C)c43)c2)n1,–,–,–,–,"pIC50 [1, 4]: 5.30 to 6.00; pIC50 [2, 5]: 6.00 to 7.00; MDCK permeability (MDR1-MDCK); Mean; Papp Ratio (B − A/A − B) (efflux ratio) [3]: 138; MDCK permeability (MDR1-MDCK); Mean; Papp (A − B) ([3]; A to B): 0.43 10^−6 cm/s; MDCK permeability (MDR1-MDCK); Mean; Papp (B − A) ([3]; B to A): 60 10^−6 cm/s"
CCC1(c2cccc(S(=O)(=O)CC3CC3)c2)C2=C(CC(C)(C)NC2=O)Nc2n[nH]c(C)c21 (centres unmarked),> 7.00,> 7.00,–,–,–
CCC1(c2cccc(C(C)C)c2)C2=C(CC(C)(C)NC2=O)Nc2n[nH]cc21 (centres unmarked) [Compound 949761],–,–,> 7.00,6.00 to 7.00,–
CC[C@@]1(c2cccc(-c3c4c(cn3C)CCCC4)c2)C2=C(CC(C)(C)NC2=O)Nc2n[nH]cc21,> 7.00,6.00 to 7.00,–,–,–
CCC1(c2ccc(C)cc2)C2=C(CC(C)(C)CC2=O)Nc2n[nH]c(C(F)(F)F)c21 (centres unmarked),–,–,> 7.00,> 7.00,–
CC[C@]1(c2cccc(-c3c([N+](=O)[O-])c(C)nn3C)c2)C2=C(CC(C)(C)NC2=O)Nc2n[nH]cc21,–,–,> 7.00,> 7.00,–
CCC1(c2cccc(Cl)c2)C2=C(CC(C)(C)CC2=O)Nc2n[nH]c(C)c21 (centres unmarked) [Compound 790611],> 7.00,6.00 to 7.00,–,–,–
CCC1(c2cccc(C(C)c3ncccn3)c2)C2=C(CC(C)(C)CC2=O)Nc2n[nH]cc21 (centres unmarked),–,–,–,–,"pIC50 [1, 10]: > 7.00; pIC50 [2, 11]: 6.00 to 7.00"
CC[C@]1(c2cccc(C(F)(F)F)c2)C2=C(Nc3n[nH]cc31)C(C)(C)N(C)C2=O,–,–,–,–,"pIC50 [1, 10]: > 7.00; pIC50 [2, 11]: 6.00 to 7.00"
CC[C@]1(c2cccc(C(F)(F)F)c2)C2=C(CCN(c3cnsc3)C2=O)Nc2n[nH]cc21,–,–,6.00 to 7.00,5.30 to 6.00,–
CCC1(c2cccc(N3CCCC3)c2)C2=C(CC(C)(C)CC2=O)Nc2n[nH]c(C)c21 (centres unmarked) [Compound 883874],> 7.00,> 7.00,–,–,–
CC[C@@]1(c2cccc(N3C[C@H](C)[C@@H](C)C3)c2)C2=C(CC(C)(C)CC2=O)Nc2n[nH]cc21,–,–,6.00 to 7.00,5.30 to 6.00,–
CC[C@@]1(c2cccc(-c3ccncc3C)c2)C2=C(CC(C)(C)CC2=O)Nc2n[nH]c(C(F)(F)F)c21,–,–,–,–,"pIC50 [1, 10]: > 7.00; pIC50 [2, 11]: 6.00 to 7.00"
CC[C@]1(c2cccc(-c3cc(C)ncc3F)c2)C2=C(CC(C)(C)NC2=O)Nc2n[nH]c(C)c21,–,–,5.30 to 6.00,< 5.30,–
CC[C@]1(c2cccc(-c3cc(C)nn3C)c2)C2=C(Nc3n[nH]cc31)[C@@H](F)C(C)(C)CC2=O,–,–,–,–,"pIC50 [1, 10]: 6.00 to 7.00; pIC50 [2, 11]: < 5.30"
CC(C)(C)Cc1[nH]nc2c1[C@]1(CCc3cccc(F)c31)C1=C(CC(C)(C)CC1=O)N2,6.00 to 7.00,> 7.00,–,–,–
CC[C@@]1(c2cccc([C@@H]3CCOC3)c2)C2=C(CC(C)(C)CC2=O)Nc2n[nH]cc21,–,–,> 7.00,> 7.00,–
CC[C@]1(c2cccc(-c3ccncc3)c2)C2=C(Nc3n[nH]cc31)[C@H](F)C(C)(C)CC2=O,–,–,–,–,"pIC50 [1, 4]: 6.00 to 7.00; pIC50 [1, 10]: > 7.00; pIC50 [2, 5]: 5.30 to 6.00; pIC50 [2, 11]: > 7.00"
CC[C@@]1(c2cccc(Oc3cncnc3)c2)C2=C(CC(C)(C)CC2=O)Nc2n[nH]cc21,–,–,–,–,"pIC50 [1, 10]: > 7.00; pIC50 [2, 11]: > 7.00"

SMILES,"pIC50 [1, 6]","pIC50 [2, 7]","pIC50 [1, 8]","pIC50 [2, 9]",also measured
CCC1(c2cccc(-c3ccnc(C(C)(C)O)c3)c2)C2=C(CC(C)(C)CC2=O)Nc2n[nH]cc21 (centres unmarked),–,–,–,–,"pIC50 [1, 10]: > 7.00; pIC50 [2, 11]: 5.30 to 6.00"
CC[C@]1(c2cccc(-c3cnn(-c4ccccc4)c3F)c2)C2=C(CC(C)(C)NC2=O)Nc2n[nH]cc21,–,–,6.00 to 7.00,5.30 to 6.00,–
CCC1(c2cccc(N(CC3CCCC3)C(C)=O)c2)C2=C(CC(C)(C)CC2=O)Nc2n[nH]cc21 (centres unmarked),–,–,> 7.00,> 7.00,–
CCC1(c2cccc(-c3cncn3C)c2)C2=C(CC(C)(C)NC2=O)Nc2n[nH]c(C)c21 (centres unmarked),> 7.00,> 7.00,–,–,–
CCC1(c2cccc(N3CCCC[C@H]3C)c2)C2=C(CC(C)(C)CC2=O)Nc2n[nH]cc21 (some centres unmarked),–,–,> 7.00,6.00 to 7.00,–
CC[C@]1(c2cccc(Cl)c2)C2=C(CC(C)(C)CC2=O)Nc2n[nH]c(C)c21,> 7.00,> 7.00,–,–,–
CC[C@]1(c2cccc(-c3cnn4c3CCCC4)c2)C2=C(CC(C)(C)NC2=O)Nc2n[nH]c(C(F)(F)F)c21,6.00 to 7.00,6.00 to 7.00,–,–,–
CC[C@]1(c2cccc(-c3cn(C)nc3C)c2)C2=C(CC(C)(C)NC2=O)Nc2n[nH]c(C(F)F)c21,–,–,6.00 to 7.00,6.00 to 7.00,–
CCC1(c2cccc(-c3ccnc(C)c3C)c2)C2=C(CC(C)(C)CC2=O)Nc2n[nH]c(C(F)(F)F)c21 (centres unmarked),–,–,–,–,"pIC50 [1, 4]: > 7.00; pIC50 [1, 10]: > 7.00; pIC50 [2, 5]: 6.00 to 7.00; pIC50 [2, 11]: > 7.00"
CC[C@@]1(c2cccc(Br)c2)C2=C(C[C@H](C)CC2=O)Nc2n[nH]c(C(F)(F)F)c21,6.00 to 7.00,6.00 to 7.00,–,–,–
CC[C@]1(c2cccc(Br)c2)C2=C(C[C@@H](C)CC2=O)Nc2n[nH]c(C(F)(F)F)c21,> 7.00,> 7.00,–,–,–
CC[C@]1(c2cccc(-c3ncnn3C)c2)C2=C(CC(C)(C)CC2=O)Nc2n[nH]cc21,–,–,–,–,"pIC50 [1, 4]: < 5.30; pIC50 [1, 10]: 5.30 to 6.00; pIC50 [2, 5]: < 5.30; pIC50 [2, 11]: < 5.30"
CC[C@@]1(c2cccc(-c3ccncc3C)c2)C2=C(C[C@@]3(CCOC3)NC2=O)Nc2n[nH]cc21,> 7.00,> 7.00,–,–,–
CCC1(c2ccccc2)C2=C(CC(C)(C)CC2=O)Nc2n[nH]c(C(F)(F)F)c21 (centres unmarked),> 7.00,> 7.00,–,–,–
CC[C@@]1(c2cccc(-c3ccnc(C)c3)c2)C2=C(C[C@@H](C)NC2=O)Nc2n[nH]cc21,–,–,–,–,"pIC50 ([1]; read-out: GSK3-A TR-FRET BIOCHEMICAL (TR-FRET), IC50, 1 nM GSK3α, 4 μM ATP, 30 minute preincubation): > 7.00; pIC50 ([2]; read-out: GSK3-B TR-FRET BIOCHEMICAL (TR-FRET), IC50, 1 nM GSK3b, 2 μM ATP, 30 minute preincubation): 5.30 to 6.00"
CCC1(c2cccc(N3[C@H](C)CCC[C@@H]3C)c2)C2=C(CC(C)(C)CC2=O)Nc2n[nH]cc21 (some centres unmarked),6.00 to 7.00,5.30 to 6.00,–,–,–
CC[C@]1(c2cccc(Cl)c2)C2=C(CC(C)(C)CC2=O)Nc2n[nH]c(C(F)(F)F)c21,> 7.00,> 7.00,–,–,"pIC50 [1, 4]: > 7.00; pIC50 [2, 5]: 6.00 to 7.00"
CC[C@@]1(c2cccc(-c3cnn(C)c3C)c2)C2=C(CC(C)(C)CC2=O)Nc2n[nH]c(C)c21,–,–,6.00 to 7.00,5.30 to 6.00,–
CC[C@]1(c2cccc(-c3ccnn3C)c2)C2=C(C[C@@]3(CCCOC3)NC2=O)Nc2n[nH]cc21,> 7.00,6.00 to 7.00,–,–,"pIC50 [1, 4]: 6.00 to 7.00; pIC50 [2, 5]: 5.30 to 6.00"

# Second part, led by results:
"pIC50 [1, 6]","pIC50 [2, 7]","pIC50 [1, 8]","pIC50 [2, 9]",SMILES,also measured
–,–,> 7.00,6.00 to 7.00,CCC1(c2cccc(N(C)c3cccc(C)n3)c2)C2=C(CC(C)(C)CC2=O)Nc2n[nH]cc21 (centres unmarked),–
> 7.00,6.00 to 7.00,–,–,CCC1(c2cccc(-c3cnn(C)c3)c2)C2=C(CC(C)(C)CC2=O)Nc2n[nH]cc21 (centres unmarked),–
> 7.00,6.00 to 7.00,–,–,CC[C@@]1(c2cccc(N(C)c3ccncc3)c2)C2=C(CC(C)(C)CC2=O)Nc2n[nH]cc21,–
5.30 to 6.00,< 5.30,–,–,CC[C@@]1(c2cccc(-c3ccnc(N4CCCCC4)c3)c2)C2=C(CC(C)(C)NC2=O)Nc2n[nH]cc21,–
> 7.00,6.00 to 7.00,–,–,CC[C@@]1(c2cccc(-c3ccnc(C)c3)c2)C2=C(C[C@]3(CCOC3)NC2=O)Nc2n[nH]cc21,–
–,–,> 7.00,> 7.00,CC[C@@]1(c2cccc(N(C)c3ccnc(F)c3)c2)C2=C(CC(C)(C)CC2=O)Nc2n[nH]cc21,–
–,–,6.00 to 7.00,5.30 to 6.00,CC[C@]1(c2cccc(N(C)c3ccnnc3)c2)C2=C(CC(C)(C)CC2=O)Nc2n[nH]cc21,–
–,–,> 7.00,6.00 to 7.00,CC[C@@]1(c2cccc(-c3ccnc(OC)c3)c2)C2=C(CC(C)(C)CC2=O)Nc2n[nH]cc21,"pIC50 [1, 4]: 6.00 to 7.00; pIC50 [2, 5]: < 5.30"

# pIC50: −log10 of the molar value. Read-outs that look alike come from different tables or passages of the source.
